## Binding of CDR-mutated scFvs to a peptide of the spike HR2 region

Reference: Engelhart et al. 2022, doi:10.1038/s41597-022-01779-4. File: FLAb, binding data.

Target: peptide PDVDLGDISGINAS, taken from heptad repeat 2 (HR2) of SARS-CoV-2 spike.

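In library AAYL50, one, two or three CDR residues were substituted; doubles and triples were drawn at random. The assay is AlphaSeq: two haploid yeast populations carry antibody and antigen on their surface. Mating (16 h, 30 °C) was followed by selection of diploids and sequencing of their barcodes. Read counts were normalised to the haploid input and turned into Kd by a linear fit to BCL2-family pairs of known affinity, for each replicate. The assay was run in three technical replicates.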

Parent scFv Ab-14: VH joined to VL by a (GGGGS)3 linker. Changes lie in the light chain CDRs alone.
VH: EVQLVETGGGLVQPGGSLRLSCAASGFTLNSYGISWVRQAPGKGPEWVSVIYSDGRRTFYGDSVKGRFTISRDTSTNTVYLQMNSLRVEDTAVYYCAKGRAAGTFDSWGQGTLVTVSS
VL: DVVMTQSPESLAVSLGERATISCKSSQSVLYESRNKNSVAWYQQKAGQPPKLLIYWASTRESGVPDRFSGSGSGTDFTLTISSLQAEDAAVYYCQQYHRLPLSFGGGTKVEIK

Sequences are complete VL domains. The read-out is the apparent dissociation constant on a log10 scale (nM): the lower, the stronger. The mean shown is taken over the replicates in which the pair was detected. An entry "ND" has no value in the source: the pair was not observed among the diploids in that replicate. This suggests poor binding but is not conclusive.

| # | VL | replicates, log10 nM | mean, log10 nM | signal with controls |
|---|---|---|---|---|
| 1 | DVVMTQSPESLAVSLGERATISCKSSQSVSWESRNKNSVAWYQQKAGQPPKLLIYWASTRESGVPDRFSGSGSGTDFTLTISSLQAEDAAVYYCQQYHRLPESFGGGTKVEIK | 0.53 0.74 0.67 | 0.65 | 4 of 9 (4.61) |
| 2 | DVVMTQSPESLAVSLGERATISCKFSQSVLYGSRNKNSVAWYQQKAGQPPKLLIYWASERESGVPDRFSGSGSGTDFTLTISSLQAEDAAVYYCQQYHRLPLSFGGGTKVEIK | ND ND ND | ND | 0 of 9 |
| 3 | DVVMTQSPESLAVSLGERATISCKSSQSVLYEERNKQSVAWYQQKAGQPPKLLIYWCSTRESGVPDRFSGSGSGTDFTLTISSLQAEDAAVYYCQQYHRLPLSFGGGTKVEIK | ND ND ND | ND | 0 of 9 |
| 4 | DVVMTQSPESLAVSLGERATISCKSSQSVLYESRNKNPAAWYQQKAGQPPKLLIYWASTRESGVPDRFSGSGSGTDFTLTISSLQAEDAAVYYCQQYVRLPLSFGGGTKVEIK | ND ND ND | ND | 1 of 9 (4.48) |
| 5 | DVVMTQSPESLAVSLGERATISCKSSQSVLYESRNKLRVAWYQQKAGQPPKLLIYWASTRESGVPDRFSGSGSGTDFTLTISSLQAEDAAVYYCQQYHRLPYSFGGGTKVEIK | ND ND ND | ND | 1 of 9 (4.31) |
| 6 | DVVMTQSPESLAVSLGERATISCVSSRGVLYESRNKNSVAWYQQKAGQPPKLLIYWASTRESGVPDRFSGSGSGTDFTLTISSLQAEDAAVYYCQQYHRLPLSFGGGTKVEIK | 2.61 2.65 2.90 | 2.72 | 2 of 9 (4.08) |
| 7 | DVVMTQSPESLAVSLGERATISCKSSVSVLFESRNKNSVIWYQQKAGQPPKLLIYWASTRESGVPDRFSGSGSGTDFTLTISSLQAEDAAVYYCQQYHRLPLSFGGGTKVEIK | ND ND ND | ND | 0 of 9 |
| 8 | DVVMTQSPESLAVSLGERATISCKSSQMVLYESRNKNSVAWYQQKAGQPPKLLIYWASTRWSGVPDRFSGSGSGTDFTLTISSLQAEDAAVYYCQQYHRLPLSFGGGTKVEIK | ND ND ND | ND | 0 of 9 |
| 9 | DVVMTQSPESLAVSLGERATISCKSSESVYYESRNKNSVAWYQQKAGQPPKLLIYWASTRESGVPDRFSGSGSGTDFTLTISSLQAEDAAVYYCQQYHSLPLSFGGGTKVEIK | 1.54 1.69 1.47 | 1.57 | 3 of 9 (4.11) |
| 10 | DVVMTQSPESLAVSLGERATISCISKQAVLYESRNKNSVAWYQQKAGQPPKLLIYWASTRESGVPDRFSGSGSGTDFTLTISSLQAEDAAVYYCQQYHRLPLSFGGGTKVEIK | 1.88 1.91 2.24 | 2.01 | 0 of 9 |
| 11 | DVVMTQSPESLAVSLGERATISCKSFQVVLYMSRNKNSVAWYQQKAGQPPKLLIYWASTRESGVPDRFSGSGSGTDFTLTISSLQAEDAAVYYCQQYHRLPLSFGGGTKVEIK | 3.67 2.77 4.09 | 3.51 | 3 of 9 (3.53) |
| 12 | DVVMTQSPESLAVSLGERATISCKSSCSVLYESRNKNSVAWYQQKAGQPPKLLIYWAVTRISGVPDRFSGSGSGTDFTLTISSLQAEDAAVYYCQQYHRLPLSFGGGTKVEIK | 4.15 4.04 3.71 | 3.97 | 1 of 9 (3.67) |
| 13 | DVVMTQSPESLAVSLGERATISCKSSQSVLYESRNQNSVAWYQQKAGQPPKLLIYWASTRESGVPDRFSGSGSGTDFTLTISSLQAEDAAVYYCSQYHRLDLSFGGGTKVEIK | 0.79 0.99 0.74 | 0.84 | 2 of 9 (4.19) |
| 14 | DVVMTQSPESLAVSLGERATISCKSPQSVLYESRNKNSVAWYQQKAGQPPKLLIYWASTRSSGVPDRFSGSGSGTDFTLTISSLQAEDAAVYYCQQYHRLPLHFGGGTKVEIK | 1.62 1.86 2.08 | 1.85 | 5 of 9 (4.46) |
| 15 | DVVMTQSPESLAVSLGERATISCKASQSVLYETRNKHSVAWYQQKAGQPPKLLIYWASTRESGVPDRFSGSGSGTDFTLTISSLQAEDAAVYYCQQYHRLPLSFGGGTKVEIK | 0.69 1.14 0.85 | 0.89 | 1 of 9 (4.14) |
| 16 | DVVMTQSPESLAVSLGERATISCESSQSVLYEHRNKNSVAWYQQKAGQPPKLLIYWASTCESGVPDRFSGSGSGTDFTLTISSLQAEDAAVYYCQQYHRLPLSFGGGTKVEIK | ND ND 3.98 | 3.98 | 2 of 9 (3.43) |
| 17 | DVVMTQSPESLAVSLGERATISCKSQQSVLYESRCVNSVAWYQQKAGQPPKLLIYWASTRESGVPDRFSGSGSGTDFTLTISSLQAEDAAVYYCQQYHRLPLSFGGGTKVEIK | 1.95 1.87 2.00 | 1.94 | 0 of 9 |
| 18 | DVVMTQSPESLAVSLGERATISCKSSQSVLYESRNKNSVAWYQQKAGQPPKLLIYRASTRESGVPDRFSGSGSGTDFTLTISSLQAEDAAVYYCQQYHRNPLSFGGGTKVEIK | ND ND ND | ND | 0 of 9 |
| 19 | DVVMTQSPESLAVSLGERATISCKSSQTVLYESRNKNSVAWYQQKAGQPPKLLIYWASTPESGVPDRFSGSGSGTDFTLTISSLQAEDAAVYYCQQYHALPLSFGGGTKVEIK | 3.33 2.51 2.42 | 2.75 | 3 of 9 (5.29) |
| 20 | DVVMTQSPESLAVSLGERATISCCSSQSVLYESRNKSSVAWYQQKAGQPPKLLIYWASTRESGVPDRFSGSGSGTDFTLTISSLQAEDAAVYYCQQYHRLPMSFGGGTKVEIK | 2.79 2.09 2.45 | 2.44 | 5 of 9 (4.46) |
| 21 | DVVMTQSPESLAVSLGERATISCKTSQSCLYESLNKNSVAWYQQKAGQPPKLLIYWASTRESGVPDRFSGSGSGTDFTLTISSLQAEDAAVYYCQQYHRLPLSFGGGTKVEIK | 0.53 0.78 0.57 | 0.63 | 0 of 9 |
| 22 | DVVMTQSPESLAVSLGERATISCKSSQMVLYNSRNKNSVAWYQQKAGQPPKLLIYWASTRESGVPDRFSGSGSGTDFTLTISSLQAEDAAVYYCQVYHRLPLSFGGGTKVEIK | ND 3.62 ND | 3.62 | 5 of 9 (4.30) |

Repeated from above, the 3 best binders with a signal in all replicates:

VL,"replicates, log10 nM","mean, log10 nM",signal with controls
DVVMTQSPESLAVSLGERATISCKTSQSCLYESLNKNSVAWYQQKAGQPPKLLIYWASTRESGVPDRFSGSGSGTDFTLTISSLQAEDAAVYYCQQYHRLPLSFGGGTKVEIK,0.53 0.78 0.57,0.63,0 of 9
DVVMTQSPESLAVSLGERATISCKSSQSVSWESRNKNSVAWYQQKAGQPPKLLIYWASTRESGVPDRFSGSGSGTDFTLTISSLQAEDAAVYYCQQYHRLPESFGGGTKVEIK,0.53 0.74 0.67,0.65,4 of 9 (4.61)
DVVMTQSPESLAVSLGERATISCKSSQSVLYESRNQNSVAWYQQKAGQPPKLLIYWASTRESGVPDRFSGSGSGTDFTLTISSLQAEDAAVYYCSQYHRLDLSFGGGTKVEIK,0.79 0.99 0.74,0.84,2 of 9 (4.19)

Background: pairings of library AAYL50 with three empty control strains gave a value in 18% of cases (median 4.19, 5th percentile 2.99). Values in that range, when seen in few replicates, are hard to tell from nonspecific mating. Also given: how often the same scFv was detected with the empty control strains, with their mean in brackets. Parent in this assay: reference entry 0.65, copy in this library 1.68.